The values that follow are results of earlier work, collected in PMC3776131 (Bioorganic & medicinal chemistry letters, 2013).

Chains of the proteins cited; added tags and fusions are not shown. Lines headed by an entry give the natural chain unless they say otherwise; changes in a name come on top.
UniProt P32300, whole entry: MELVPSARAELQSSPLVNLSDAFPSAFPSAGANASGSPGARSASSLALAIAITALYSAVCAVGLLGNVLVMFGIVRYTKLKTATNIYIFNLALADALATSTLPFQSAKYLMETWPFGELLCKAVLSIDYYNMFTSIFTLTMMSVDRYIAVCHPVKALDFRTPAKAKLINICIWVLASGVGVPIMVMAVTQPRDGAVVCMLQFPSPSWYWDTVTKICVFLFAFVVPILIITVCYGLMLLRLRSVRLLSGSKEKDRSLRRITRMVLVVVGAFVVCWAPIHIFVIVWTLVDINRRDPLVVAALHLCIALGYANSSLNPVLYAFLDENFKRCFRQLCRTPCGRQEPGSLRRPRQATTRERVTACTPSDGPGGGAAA

In this series the target is δ receptor (Mus musculus, UniProt P32300). As to conditions: cited from earlier work.

Regarding H-Dmt-Tic-OH [Compound 8a], the “MVD Ke (δ antagonist activity)” value was 6.55 ± 0.27 nM.
